Literature values in patent US20160271149A1, “[…] COMPOUNDS THAT […] PROTEIN ARGININE […] ACTIVITY FOR REDUCING TUMOR CELL PROLIFERATION” (Epinova Therapeutics Corp., priority 2015, published 2016).

Molecular target: T1, human PPARα (Homo sapiens, UniProt Q07869)
T1 sequence (Q07869 1-468): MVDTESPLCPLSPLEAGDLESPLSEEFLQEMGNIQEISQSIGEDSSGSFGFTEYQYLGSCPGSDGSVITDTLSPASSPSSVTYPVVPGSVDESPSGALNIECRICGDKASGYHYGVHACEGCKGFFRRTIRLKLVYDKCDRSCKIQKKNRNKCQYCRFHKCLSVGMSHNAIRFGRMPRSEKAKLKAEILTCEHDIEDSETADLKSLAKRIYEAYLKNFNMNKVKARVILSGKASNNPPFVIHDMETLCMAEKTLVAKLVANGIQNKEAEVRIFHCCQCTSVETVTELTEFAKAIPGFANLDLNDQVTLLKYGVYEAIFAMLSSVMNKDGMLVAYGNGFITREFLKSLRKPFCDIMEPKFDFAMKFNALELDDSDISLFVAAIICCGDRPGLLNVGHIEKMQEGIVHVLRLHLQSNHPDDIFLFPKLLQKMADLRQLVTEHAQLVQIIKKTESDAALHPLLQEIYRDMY
T1 sequence (P19793 1-462 partner): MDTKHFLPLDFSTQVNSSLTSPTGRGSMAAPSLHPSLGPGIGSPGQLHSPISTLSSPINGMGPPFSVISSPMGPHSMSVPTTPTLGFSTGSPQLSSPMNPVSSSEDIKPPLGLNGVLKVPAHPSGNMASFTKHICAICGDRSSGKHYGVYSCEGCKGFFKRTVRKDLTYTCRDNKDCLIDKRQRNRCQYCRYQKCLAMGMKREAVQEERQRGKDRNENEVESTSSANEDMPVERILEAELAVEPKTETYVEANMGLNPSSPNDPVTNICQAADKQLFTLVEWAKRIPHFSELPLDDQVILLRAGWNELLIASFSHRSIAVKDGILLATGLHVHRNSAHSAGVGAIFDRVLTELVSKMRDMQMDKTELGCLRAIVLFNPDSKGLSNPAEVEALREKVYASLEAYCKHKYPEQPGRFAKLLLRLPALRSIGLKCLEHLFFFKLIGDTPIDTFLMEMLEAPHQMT
Conditions: COS-1 cells, human PPARα and RXRα, cited from earlier work

For CN(CCOc1ccc(CC2SC(=O)NC2=O)cc1)c1ccccn1 (centres unmarked) [Rosiglitazone, 5-[[4-[2-(methyl-2-pyridinylamino)ethoxy]phenyl]methyl]-2,4-thiazolidinedione], the “activation of PPARα” value (at 1 μM) is given as “low level activation” and the “fold activation of PPARα” value (at a concentration of 10 μM) is given as 4.2 fold.
